Source: article PMC8716319 (Toxicology, 2020)

Test system: human liver microsomes
Experiment: Steady-state bioactivation kinetics: alpha-dicarbonyl
Settings: alpha-dicarbonyl formation

Structure (SMILES): Cc1cnc(NC(=O)C2=C(O)c3ccccc3S(=O)(=O)N2C)s1 [meloxicam]
- higher Km compared to sudoxicam: four-fold
